Test results: patent US20110245496A1, “Quinazoline Salt Compounds” (priority 2007, published 2011)

Experiment: Salt solubility measurement in water
Details: stirred at ambient temperature 18-20 hours, filtered, hplc assay

CS(=O)(=O)CCNCc1ccc(-c2ccc3ncnc(Nc4ccc(OCc5cccc(F)c5)c(Cl)c4)c3c2)o1.O=C(O)c1ccccc1O
Solubility as free base: 2 µg/mL | Solubility as salt: 3 µg/mL
